According to patent publication US7678834B2, “Substituted 4-aminocyclohexanol compounds” (dated 2010):

The compounds below were run on NMRI mice (assay: Analgesia testing in the tail flick test on the mouse). Conditions: intravenously, action maximum 20 minutes after administration.
`CN(C)C1(Cc2ccccc2)CCC(O)(c2cc3ccccc3s2)CC1` (stereo not drawn) was tested, and the ED50 was 0.04 mg/kg.
`CN(C)C1(Cc2ccccc2)CCC(O)(CCc2cccc(F)c2)CC1.Cl` (stereo not drawn) was tested, and the ED50 was 0.059 mg/kg.
For `CN(C)C1(Cc2ccccc2)CCC(O)(CCc2ccccc2F)CC1.Cl` (stereo not drawn), the ED50 was 0.055 mg/kg.
`CN(C)C1(Cc2cccc(F)c2)CCC(O)(CCc2ccccc2)CC1.Cl` (stereo not drawn) showed an ED50 of 0.089 mg/kg.
In the case of `Cl.OC1(CCc2ccccc2)CCC(Cc2ccccc2)(N2CCCC2)CC1` (stereo not drawn), the ED50 is reported as 0.15 mg/kg.
`CN(C)C1(Cc2cccc(F)c2)CCC(O)(Cc2ccccc2)CC1.Cl` (stereo not drawn) gave an ED50 of 0.028 mg/kg.
